Amino acid sequences for entries named in this document (tags omitted). A change or cut given only in a name is not applied to a line headed by its entry.
UniProt Q9P1W9: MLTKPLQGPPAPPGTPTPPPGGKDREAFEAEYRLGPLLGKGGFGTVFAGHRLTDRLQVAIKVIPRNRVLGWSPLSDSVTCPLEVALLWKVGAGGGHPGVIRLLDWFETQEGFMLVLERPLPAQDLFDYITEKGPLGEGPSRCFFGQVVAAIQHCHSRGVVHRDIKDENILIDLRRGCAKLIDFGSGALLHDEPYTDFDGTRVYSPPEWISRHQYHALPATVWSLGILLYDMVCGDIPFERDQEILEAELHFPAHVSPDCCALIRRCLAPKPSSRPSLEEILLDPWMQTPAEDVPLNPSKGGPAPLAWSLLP
UniProt P11309, whole entry: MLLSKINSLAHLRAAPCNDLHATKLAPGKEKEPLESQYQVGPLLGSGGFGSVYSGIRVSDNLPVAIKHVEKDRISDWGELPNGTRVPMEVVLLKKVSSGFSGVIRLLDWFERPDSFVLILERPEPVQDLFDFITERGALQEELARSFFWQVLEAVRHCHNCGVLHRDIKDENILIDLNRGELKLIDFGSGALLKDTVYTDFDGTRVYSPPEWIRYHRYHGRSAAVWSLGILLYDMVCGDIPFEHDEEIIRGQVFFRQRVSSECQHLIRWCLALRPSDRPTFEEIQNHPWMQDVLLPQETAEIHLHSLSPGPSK

According to ChEMBL document CHEMBL4477213, “Discovery and Optimization of Quinazolinone-pyrrolopyrrolones as Potent and Orally Bioavailable Pan-Pim Kinase Inhibitors” (J Med Chem, 2016):

Columns and labels:
[1] = biological target: Serine/threonine-protein kinase pim-2 (Homo sapiens, UniProt Q9P1W9); assay: Inhibition of full length recombinant Pim-2 (unknown origin) assessed as reduction in phosphorylation of biotinylated-BAD peptide at Serine 112 residue preincubated for 30 mins followed by substrate addition for 1 hr by HTRF assay
[2] = biological target: Serine/threonine-protein kinase pim-1 (Homo sapiens, UniProt P11309)
[3] = biological target: Serine/threonine-protein kinase PIM (Homo sapiens, UniProt P11309+Q9P1W9+Q86V86); conditions: kms-12-bm
Homo sapiens = organism: Homo sapiens; assay: Ratio of IC50 for pan Pim in human KMS-12-BM cells to IC50 for full length recombinant Pim-2 (unknown origin); assay type: cell-based

Row | IC50 [1] | IC50 [2] | IC50 [3] | Structure (SMILES) | Ratio IC50 (Homo sapiens)
1 | 0.1 nM | 0.1 nM | 29 nM | Cc1nc2ccc(F)c(-c3cc4c([nH]3)[C@@H](C)NC4=O)c2nc1NC(C)(C)C | –
2 | – | – | 1635 nM | Cc1nc2cccc(-c3cc4c([nH]3)CCCNC4=O)c2nc1NC(C)(C)C | –
3 | – | 0.7 nM | – | Cc1nc2cccc(-c3cc4c([nH]3)[C@@H](C)NC4=O)c2nc1NC(C)(C)C | 30
